# Test: Water solubility and aggregation of dyes in water (absorbance spectra)
# Conditions: in words
substance,measurement,value
"Sodium 3-[(2Z)-{[(9H-Fluoren-9-yloxy)carbonyl]amino}-2-[(2E)-4-(1,3-dimethyl-4,6-dioxo-2-thioxotetrahydropyrimidin-5(2H)-ylidene)-but-2-enylidene]-1,3-benzothiazol-3(2H)-yl]propane-1-sulfonate [dye 1d]",water solubility,significantly improved

# — patent US7592188B2, “Live cell biosensors” (The Scripps Research Institute, priority 2004, dated 2009)
